Target: GABA A receptor alpha-1/beta-1/gamma-2 (Homo sapiens, UniProt P14867+P18507+P18505)
Experiment: Positive allosteric modulation of GABA-A alpha1beta1gamma2S receptor (unknown origin) expressed in Xenopus laevis oocytes assessed as increase in GABA-induced chloride current at 300 uM after 15 mins at -70 mV holding potential by two-microelectrode voltage clamp method relative to control
Assay type: cell-based
Settings: 0.25 h

Sequences of proteins named here, by UniProt entry; tags and fusion partners are left off. Residues count along the entry.
UniProt P14867, 28-456 limits assumed: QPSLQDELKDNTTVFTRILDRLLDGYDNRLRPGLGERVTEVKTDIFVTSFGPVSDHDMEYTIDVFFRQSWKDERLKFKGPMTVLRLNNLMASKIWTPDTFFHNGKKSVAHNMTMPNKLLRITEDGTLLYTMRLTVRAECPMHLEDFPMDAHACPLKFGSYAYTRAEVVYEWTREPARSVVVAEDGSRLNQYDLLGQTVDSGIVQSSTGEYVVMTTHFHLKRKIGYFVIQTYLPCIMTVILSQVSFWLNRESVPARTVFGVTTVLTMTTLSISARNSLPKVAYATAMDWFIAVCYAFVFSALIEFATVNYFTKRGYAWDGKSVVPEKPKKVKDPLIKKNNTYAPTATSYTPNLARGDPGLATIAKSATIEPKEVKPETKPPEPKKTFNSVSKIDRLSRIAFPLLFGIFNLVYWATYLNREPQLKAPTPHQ
UniProt P18507, 40-475 limits assumed: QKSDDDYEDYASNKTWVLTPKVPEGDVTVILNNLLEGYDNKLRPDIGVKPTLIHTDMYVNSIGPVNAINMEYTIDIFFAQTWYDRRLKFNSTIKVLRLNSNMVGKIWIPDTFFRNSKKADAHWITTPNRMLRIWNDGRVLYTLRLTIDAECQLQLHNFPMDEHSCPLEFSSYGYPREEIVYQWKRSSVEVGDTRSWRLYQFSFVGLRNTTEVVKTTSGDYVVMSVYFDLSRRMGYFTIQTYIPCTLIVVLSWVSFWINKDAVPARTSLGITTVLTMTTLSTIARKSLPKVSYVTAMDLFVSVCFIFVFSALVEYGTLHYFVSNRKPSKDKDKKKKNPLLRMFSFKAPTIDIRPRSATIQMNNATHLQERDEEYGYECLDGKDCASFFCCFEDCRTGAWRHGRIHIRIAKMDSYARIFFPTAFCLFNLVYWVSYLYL
UniProt P18505, 26-474 limits assumed: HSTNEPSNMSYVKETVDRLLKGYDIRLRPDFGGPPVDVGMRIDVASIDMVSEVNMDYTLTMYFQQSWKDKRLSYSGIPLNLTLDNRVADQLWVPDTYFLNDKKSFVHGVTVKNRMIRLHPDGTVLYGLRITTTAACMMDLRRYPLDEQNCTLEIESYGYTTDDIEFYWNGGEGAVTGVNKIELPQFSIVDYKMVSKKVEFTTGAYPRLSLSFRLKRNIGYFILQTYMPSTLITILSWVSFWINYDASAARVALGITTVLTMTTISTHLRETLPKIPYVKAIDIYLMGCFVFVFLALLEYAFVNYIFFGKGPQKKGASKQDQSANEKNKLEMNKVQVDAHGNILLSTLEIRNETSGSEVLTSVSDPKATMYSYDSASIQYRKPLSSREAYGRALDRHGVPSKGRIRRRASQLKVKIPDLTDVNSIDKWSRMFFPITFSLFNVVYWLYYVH

## CC(=C(C#N)C#N)c1ccc(Cl)cc1Cl
  Emax: 854%
